Measured values taken from patent publication US20190350938A1 (BROAD INSTITUTE, published 2019).

Target: P2D SLC16A11^REF-V5 (human) (UniProt Q8NCK7)
Assay: anti-V5 IP of P2D SLC16A11REF-V5 from HEK293T lysate, iTRAQ quantitative MS; enrichment vs empty vector control IP

In the case of ATP1A1 (from UniProt P05023 1-1023), the BA log fold change (log fold change) was 1.1.
